Measured values taken from ChEMBL document CHEMBL2216750, “Irreversible protein kinase inhibitors: balancing the benefits and risks” (J Med Chem, 2012).

Chains of the proteins cited; added tags and fusions are not shown. Lines headed by an entry give the natural chain unless they say otherwise; changes in a name come on top.
UniProt Q06187: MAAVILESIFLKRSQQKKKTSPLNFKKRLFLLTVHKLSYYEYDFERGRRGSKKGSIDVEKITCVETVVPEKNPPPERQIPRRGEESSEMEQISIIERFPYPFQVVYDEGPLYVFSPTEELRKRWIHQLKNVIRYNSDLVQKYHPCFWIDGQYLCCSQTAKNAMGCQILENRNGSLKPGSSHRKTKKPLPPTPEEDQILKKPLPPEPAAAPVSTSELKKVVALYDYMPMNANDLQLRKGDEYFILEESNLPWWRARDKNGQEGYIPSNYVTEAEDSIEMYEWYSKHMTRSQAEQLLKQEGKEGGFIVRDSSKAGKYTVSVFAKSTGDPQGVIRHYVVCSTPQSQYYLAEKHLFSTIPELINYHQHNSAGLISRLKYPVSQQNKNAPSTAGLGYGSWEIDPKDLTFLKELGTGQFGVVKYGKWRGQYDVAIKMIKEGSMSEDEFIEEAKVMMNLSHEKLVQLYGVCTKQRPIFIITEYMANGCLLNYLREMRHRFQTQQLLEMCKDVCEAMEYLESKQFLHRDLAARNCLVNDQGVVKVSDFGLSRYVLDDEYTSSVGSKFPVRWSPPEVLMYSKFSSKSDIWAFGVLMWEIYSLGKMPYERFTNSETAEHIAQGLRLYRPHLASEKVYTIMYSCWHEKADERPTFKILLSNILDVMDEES

Experiments:
[1] = target: T1, Tyrosine-protein kinase BTK (Homo sapiens, UniProt Q06187); test: Inhibition of Btk in human Ramos cells; assay type: cell-based
[2] = target: T1, Tyrosine-protein kinase BTK; test: Inhibition of Btk

IC50 [1]: 1 nM
IC50 [2]: < 1 nM
Structure (SMILES): C=CC(=O)Nc1cccc(Nc2nc(Nc3ccc(Oc4ccnc(C(=O)NC)c4)cc3)ncc2F)c1
